# Data taken from PubChem BioAssay AID952 (NMMLSC, 2007).
# Protein sequences, listed by entry. Tags and fused reporters are not part of them.
# UniProt Q92843, whole entry: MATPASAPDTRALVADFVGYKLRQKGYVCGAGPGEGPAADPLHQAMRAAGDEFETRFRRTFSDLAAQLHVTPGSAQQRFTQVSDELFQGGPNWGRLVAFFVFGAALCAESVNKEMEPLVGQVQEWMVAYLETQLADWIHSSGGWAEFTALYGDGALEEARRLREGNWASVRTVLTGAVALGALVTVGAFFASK
# This is a selection; strong and weak results do not stand in their true shares. The source made the active and inactive calls. Cut-off read from the data, not from the text of the source: active = inhibition above about 40%.
# Target: Bcl-2-like protein 2 (Homo sapiens) (UniProt Q92843)
# Experiment: inhibitors of Bim binding to Bcl-W, primary screen, biochemical, multiplexed, bead-based flow cytometry (AID 952);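 note: 0% = bound tracer without compound and 100% = peptide blocker; higher means less fluorescent Bim peptide bound to Bcl-W beads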
# Conditions: Bim peptide-Bcl-W binding, at 10 µM, stronger effect = higher value
row,Structure (SMILES),inhibition
1,N#CC1(Nc2ccccc2)CCN(CCc2ccccc2)CC1,inactive: -2%
2,O=C(NCC1(N2CCCCC2)CCCCC1)c1cccc([N+](=O)[O-])c1,inactive: 1%
3,O=C(NCC1(N2CCOCC2)CCCCC1)c1cc(=O)[nH]c2ccccc12,inactive: -5%
4,CN1CCN(CCOC(=O)C(O)(c2ccccc2)c2ccccc2)CC1,inactive: -3%
5,COc1ccc(NC2CCN(C(=O)OC(C)(C)C)CC2)cc1,inactive: -1%
6,CC(C)c1ccc(NC2CCN(C(=O)OC(C)(C)C)CC2)cc1,inactive: 4%
7,COc1ccc(CN(CCCl)CCCl)cc1Cl,inactive: 0%
8,CN(C)c1cccc(C(=O)NCC2(N3CCCCC3)CCCCC2)c1,inactive: -1%
9,COc1ccc(C(=O)NCC2(N3CCCCC3)CCCCC2)c(OC)c1OC,inactive: 0%
10,O=C(NCC1(N2CCOCC2)CCCCC1)c1cc2ccccc2o1,inactive: 1%
11,O=C(OC1CN2CCC1CC2)C1c2ccccc2Oc2ccccc21 (stereo not given),inactive: 3%
12,CCOC(=O)N1CCC(Nc2ccc(OC)cc2)CC1,inactive: -4%
13,COc1ccc(NC2CCN(CCc3ccccc3)CC2)c(OC)c1,inactive: 1%
14,Fc1ccccc1NC1CCN(Cc2ccccc2)CC1,inactive: 0%
15,CCN1CCC(Nc2cccc(F)c2)CC1,inactive: 0%
16,CN(C)c1ccc(C(=O)NCC2(N3CCCCC3)CCCCC2)cc1,inactive: -3%
17,CCOc1ncccc1C(=O)NCC1(N2CCOCC2)CCCCC1,inactive: -3%
18,CC(C)(C)OC(=O)N1CCC(Nc2ccccc2)CC1,inactive: 0%
19,COc1cc(OC)cc(C(=O)NCC2(N3CCOCC3)CCCCC2)c1,inactive: 1%
20,CCC(CO)(C(=O)OC1CN2CCC1CC2)c1ccccc1 (stereo not given),inactive: 0%
21,COc1ccc(C(=O)NCC2(N3CCOCC3)CCCCC2)cc1OC,inactive: 1%
22,N/C(=N\O)c1c(N)no[n+]1[O-],inactive: -2%
23,O=C(OC1CN2CCC1CC2)C1c2ccccc2C=Cc2ccccc21 (stereo not given),inactive: -3%
24,N#Cc1ccc(C(=O)NCC2(N3CCCCC3)CCCCC2)cc1,inactive: -2%
25,c1ccc(CN2CCC(Nc3ccccc3)CC2)cc1,inactive: -3%
